# Where “and” joins values, the source holds several entries; their conditions need not be identical. Equal values may be shown once.
# Sequences of proteins named here, by UniProt entry; tags and fusion partners are left off. A change or cut given only in a name is not applied to a line headed by its entry.
# UniProt Q13555: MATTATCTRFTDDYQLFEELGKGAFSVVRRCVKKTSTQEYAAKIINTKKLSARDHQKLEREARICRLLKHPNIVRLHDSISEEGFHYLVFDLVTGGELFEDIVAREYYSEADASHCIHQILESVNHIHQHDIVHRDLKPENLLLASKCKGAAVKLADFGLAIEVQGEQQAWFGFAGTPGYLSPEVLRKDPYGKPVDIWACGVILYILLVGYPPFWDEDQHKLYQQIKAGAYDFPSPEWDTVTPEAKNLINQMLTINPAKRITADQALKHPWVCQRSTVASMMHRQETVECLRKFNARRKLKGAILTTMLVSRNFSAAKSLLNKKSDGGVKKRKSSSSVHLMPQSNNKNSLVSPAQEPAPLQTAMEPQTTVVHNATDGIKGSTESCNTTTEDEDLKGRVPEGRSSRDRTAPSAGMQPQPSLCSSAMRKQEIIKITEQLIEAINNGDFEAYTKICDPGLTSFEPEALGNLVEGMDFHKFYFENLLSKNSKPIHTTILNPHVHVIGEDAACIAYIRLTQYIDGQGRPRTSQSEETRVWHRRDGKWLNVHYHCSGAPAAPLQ
# Target: CAMKII gamma (Homo sapiens, UniProt Q13555)
# Test: CAMKII gamma kinase activity (ADP Glo)
# Settings: for units: duplicate reactions
smiles,measurement,setting,value
"CN[C@@H]1C[C@H]2O[C@@](C)([C@@H]1OC)n1c3ccccc3c3c4c(c5c6ccccc6n2c5c31)C(=O)NC4 [Staurosporin, reference compound]",mean,"10 uM ATP, inhibitor 10 nM",0.915
same,units,"10 uM ATP, inhibitor 10 nM",0.93 units and 0.9 units
same,mean,"10 uM ATP, inhibitor 100 nM",0.2
same,units,"10 uM ATP, inhibitor 100 nM",0.25 units and 0.15 units
same,mean,"50 uM ATP, inhibitor 10 nM",7.285
same,mean,"50 uM ATP, inhibitor 100 nM",0.635
same,units,"50 uM ATP, inhibitor 100 nM",0.67 units and 0.6 units

# Source: US20240342161A1, “BISBENZYLISOQUINOLINES AS CONDITIONING AGENTS FOR IMMUNE THERAPY” (priority 2023, published 2024)
